# According to US20040266882A1 (priority 2001, published 2004):
# System: PANC-1, C6, MCF-7, U2OS and HT1080
# Settings: all cases: five cell lines, DOX and VIN
smiles,measurement,value
CNCCC(Oc1ccc(C(F)(F)F)cc1)c1ccccc1 (stereo not shown) [fluoxetine],effect on cytotoxicity of the chemotherapeutic drug,potentiates the cytotoxic effect
